Laboratory results: article PMC11181336, “Discovery of ITI-333, a Novel Orally Bioavailable Molecule Targeting Multiple Receptors for the Treatment of Pain and Other Disorders” (Journal of Medicinal Chemistry, 2024)

Sequences of proteins named here, by UniProt entry; tags and fusion partners are left off.
UniProt P14416, whole entry, looked up: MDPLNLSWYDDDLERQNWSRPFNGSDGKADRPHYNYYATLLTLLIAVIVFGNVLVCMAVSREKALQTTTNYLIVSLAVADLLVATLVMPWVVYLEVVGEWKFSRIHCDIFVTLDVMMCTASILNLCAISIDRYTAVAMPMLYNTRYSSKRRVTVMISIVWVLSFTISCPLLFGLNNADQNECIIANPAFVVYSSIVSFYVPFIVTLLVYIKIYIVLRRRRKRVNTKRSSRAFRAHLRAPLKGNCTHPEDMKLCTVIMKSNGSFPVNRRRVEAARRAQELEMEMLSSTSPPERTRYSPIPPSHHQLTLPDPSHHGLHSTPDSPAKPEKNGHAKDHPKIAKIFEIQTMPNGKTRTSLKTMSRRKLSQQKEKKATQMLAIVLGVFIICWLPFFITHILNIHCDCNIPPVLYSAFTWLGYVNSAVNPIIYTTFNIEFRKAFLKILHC
UniProt P28223, whole entry, looked up: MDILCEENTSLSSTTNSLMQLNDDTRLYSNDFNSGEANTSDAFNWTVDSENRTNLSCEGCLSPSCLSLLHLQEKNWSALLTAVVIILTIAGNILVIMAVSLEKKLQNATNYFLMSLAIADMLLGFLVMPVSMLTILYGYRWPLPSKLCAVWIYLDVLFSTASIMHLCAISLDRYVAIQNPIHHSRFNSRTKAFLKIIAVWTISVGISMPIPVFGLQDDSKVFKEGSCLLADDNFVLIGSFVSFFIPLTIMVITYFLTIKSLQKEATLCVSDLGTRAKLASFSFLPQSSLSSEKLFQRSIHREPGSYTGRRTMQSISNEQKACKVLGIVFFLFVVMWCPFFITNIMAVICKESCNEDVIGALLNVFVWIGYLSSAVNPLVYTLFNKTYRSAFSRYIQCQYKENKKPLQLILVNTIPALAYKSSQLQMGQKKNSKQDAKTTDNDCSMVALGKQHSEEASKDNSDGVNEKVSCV

Assays:
[1] = biological target: human recombinant dopamine D2 short receptor (Homo sapiens, UniProt P14416); experiment: Dopamine D2 receptor binding, [3H]7-OH-DPAT displacement; conditions: read-out: D2 Ki
[2] = biological target: human full-length recombinant serotonin 5-HT2A receptors (Homo sapiens, UniProt P28223); experiment: 5-HT2A receptor radioligand binding, [125I]DOI displacement; conditions: read-out: 5-HT2A Ki

## CC1(C)C(=O)Nc2cccc3c2N1[C@H]1CCN(CCCOc2ccc(F)cc2)C[C@@H]31
[1]
  Ki: 53 nM
[2]
  Ki: 8.6 nM

## O=C1CN2c3c(cccc3[C@@H]3CN(CCCOc4ccc(F)cc4O)CC[C@@H]32)N1
[1]
  Ki: 67 nM
[2]
  Ki: 19 nM

## O=C1CN2c3c(cccc3[C@@H]3CN(CCCCc4ccc(F)cc4)CC[C@@H]32)N1
[2]
  Ki: 3.7 nM

## O=C1CN2c3c(cccc3[C@@H]3CN(CCCOc4ccc(F)cc4F)CC[C@@H]32)N1
[2]
  Ki: 15.2 nM

## O=C1CN2c3c(cccc3[C@@H]3CN(CCCOc4ccc(F)c(O)c4)CC[C@@H]32)N1
[2]
  Ki: 110 nM

## Cn1nc(CCCN2CC[C@H]3[C@@H](C2)c2cccc4c2N3CC(=O)N4)c2ccc(F)cc21
[2]
  Ki: 12.4 nM

## O=C1CN2c3c(cccc3[C@@H]3CN(CCCSc4ccc(F)cc4)CC[C@@H]32)N1
[2]
  Ki: 2.5 nM
